Source: ChEMBL document CHEMBL4052599, “Combined in Vitro Cell-Based/in Silico Screening of Naturally Occurring Flavonoids and Phenolic Compounds as Potential Anti-Alzheimer Drugs” (J Nat Prod, 2017)

Chains of the proteins cited; added tags and fusions are not shown.
UniProt P05067, whole entry: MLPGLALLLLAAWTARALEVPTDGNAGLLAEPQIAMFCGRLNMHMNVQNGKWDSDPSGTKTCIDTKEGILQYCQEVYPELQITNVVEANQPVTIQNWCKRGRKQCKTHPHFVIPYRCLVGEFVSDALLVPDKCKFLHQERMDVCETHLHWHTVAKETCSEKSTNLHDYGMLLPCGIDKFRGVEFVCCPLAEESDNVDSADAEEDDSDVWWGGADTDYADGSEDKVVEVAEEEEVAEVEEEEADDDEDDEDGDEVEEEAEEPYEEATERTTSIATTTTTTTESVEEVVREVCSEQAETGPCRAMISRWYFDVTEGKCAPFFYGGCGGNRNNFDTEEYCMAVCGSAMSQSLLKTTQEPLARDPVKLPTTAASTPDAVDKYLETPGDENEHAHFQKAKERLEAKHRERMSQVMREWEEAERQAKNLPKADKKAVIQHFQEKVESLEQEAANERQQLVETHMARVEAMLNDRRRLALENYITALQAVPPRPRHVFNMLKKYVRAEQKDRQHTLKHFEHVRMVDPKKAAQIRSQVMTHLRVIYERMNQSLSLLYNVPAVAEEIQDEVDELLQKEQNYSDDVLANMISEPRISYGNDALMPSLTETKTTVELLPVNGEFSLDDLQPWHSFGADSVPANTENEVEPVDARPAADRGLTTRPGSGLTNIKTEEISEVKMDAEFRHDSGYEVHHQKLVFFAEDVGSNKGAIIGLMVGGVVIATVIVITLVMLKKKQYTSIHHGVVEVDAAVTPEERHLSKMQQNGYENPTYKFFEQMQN

Tests used:
[1] = target: T1, Amyloid-beta precursor protein (Homo sapiens, UniProt P05067); experiment: Inhibition of amyloid beta (1 to 42) (unknown origin) aggregation assessed as half life for aggregation at 200 uM after 48 hrs by Thioflavin-T fluorescence assay
[2] = target: T1, Amyloid-beta precursor protein; experiment: Inhibition of amyloid beta (1 to 42) (unknown origin) aggregation assessed as end-time for aggregation at 200 uM after 48 hrs by Thioflavin-T fluorescence assay
[3] = target: T1, Amyloid-beta precursor protein; experiment: Inhibition of amyloid beta (1 to 42) (unknown origin) aggregation assessed as apparent elongation constant at 200 uM after 48 hrs by Thioflavin-T fluorescence assay
[4] = target: T1, Amyloid-beta precursor protein; experiment: Inhibition of amyloid beta (1 to 42) (unknown origin) aggregation assessed as nucleation constant at 200 uM after 48 hrs by Thioflavin-T fluorescence assay

O=c1c(O)c(-c2ccc(O)c(O)c2)oc2cc(O)cc(O)c12 [QUERCETIN]
T1/2 [1]: 4.88 h | TIME [2]: 8.39 h | Ke(app) [3]: 114 M⁻¹ s⁻¹ | K [4]: 496 ×10⁶ /min
